# Measured affinities in a library of Ab-14 light chain variants

Values reported by Li et al. 2023, doi:10.1038/s41467-023-39022-2 (FLAb copy).

Target peptide (SARS-CoV-2 spike, HR2 region): PDVDLGDISGINAS

Parent scFv Ab-14: VH joined to VL by a 15-residue (Gly4Ser)3 linker. Changes lie in the light chain CDRs alone.
VH: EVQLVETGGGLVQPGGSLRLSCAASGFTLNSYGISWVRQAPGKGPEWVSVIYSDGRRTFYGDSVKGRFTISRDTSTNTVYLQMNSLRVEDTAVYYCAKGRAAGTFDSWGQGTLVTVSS
VL: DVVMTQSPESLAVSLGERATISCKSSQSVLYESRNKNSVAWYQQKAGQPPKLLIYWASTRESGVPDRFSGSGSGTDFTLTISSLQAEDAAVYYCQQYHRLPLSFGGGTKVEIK

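This is the validation round: designs drawn from the data on random variants, tested in the same kind of assay. Their group label is 14L_GP_HC (GP: Gaussian process model; HC: hill climbing; a sequence that several methods proposed may carry one label only). The assay is AlphaSeq: two haploid yeast populations carry antibody and antigen on their surface. Mating (16 h, 30 °C) was followed by selection of diploids and sequencing of their barcodes. Read counts were normalised to the haploid input and turned into Kd by a linear fit to BCL2-family pairs of known affinity, for each replicate. There are six technical replicates.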

Variants are written as CDR1, CDR2 and CDR3 of the light chain (limits as in the source). Parent: KSSQSVLYESRNKNSVA, WASTRES, QQYHRLPLS.
Values are log10 of the apparent Kd in nM; lower means stronger binding.
A mean of the replicates is given; it leaves out those without a signal.
Where no diploid with the target was found in that replicate, the entry reads "nd": below detection, most likely a poor binder, though not proof of it.
In the paper, a design with two or fewer of six values counts as a poor binder.
As a blank, each scFv also met three strains without target: over all light chain designs, 4% of these pairings were detected, typically at 2.64 and seldom below 1.59. The control count says in how many pairings with the empty strains this scFv gave a signal.
Of ten entries with the parent sequence, four were seen in most replicates (averages 0.34 to 2.37), three in one and three in none, so single entries are noisy.
The range of this assay differs from that of the first round, and the authors advise against merging the two.

For KSSQSVKFESRNKNSVA | DASTRED | QQYHRLPLS, the assay gave 0.39, 0.13, 0.25, 0.18, 0.04, 0.21 (mean 0.20; controls 1 of 18).
For KQSQSVLYEERNKNSVA | DASTRES | QQYHRLPLS, the assay gave -0.11, -0.22, -0.14, -0.28, -0.11, -0.07 (mean -0.16; controls 3 of 18).
For KSSGSYLYESRNTNSVA | EASTRES | QQYHRLPLS, the assay gave 0.16, 0.20, -0.03, 0.17, 0.16, -0.08 (mean 0.10; controls 0 of 18).
For KVSQSELFESRNKNSVA | DASTRES | QQYHRLPLS, the assay gave -0.15, -0.41, -0.25, -0.49, -0.48, -0.28 (mean -0.34; controls 2 of 18).
For KVSYSYLLESRNKNSVA | EASTRES | QQYHRLPLS, the assay gave 0.38, 0.09, 0.09, -0.06, -0.01, 0.15 (mean 0.11; controls 3 of 18).
For KQSQSVLMESRNANSVA | DASTRES | QQYVRLPLS, the assay gave 1.39, 0.43, 1.39, 0.23, 0.67, 1.06 (mean 0.86; controls 0 of 18).
For KSSQSWLYESRNKNSVA | GGNTRES | QQYHRLPLS, the assay gave -0.07, -0.05, -0.16, -0.21, -0.24, 0.16 (mean -0.09; controls 0 of 18).
For KSDQGVLYESRNKNHVA | GASTRES | QQYHRLPLS, the assay gave 0.27, 0.01, 0.13, 0.06, -0.03, 0.08 (mean 0.09; controls 2 of 18).
For KISQSVLYESRNKNAVA | DASTRES | QQYHWLPLS, the assay gave 0.00, -0.36, -0.40, -0.45, -0.27, -0.47 (mean -0.33; controls 0 of 18).
For KSSISKLGESRNKNSVA | EASTRES | QQYHRLPLS, the assay gave 0.48, 0.31, 0.23, 0.17, 0.44, 0.59 (mean 0.37; controls 1 of 18).
For KSSQGWLYESRNKNSVA | GASTREN | QQYHRLPLS, the assay gave 0.08, -0.20, 0.05, -0.20, -0.18, -0.01 (mean -0.08; controls 0 of 18).
For KTSQSVLGEQRNKNSVA | DISTRES | QQYHRLPLS, the assay gave nd, nd, nd, nd, nd, nd (controls 0 of 18).
For KSSQSFLYESRNVNNVA | GASTRES | QQYHRLPLS, the assay gave -0.33, -0.78, -0.77, -0.70, -0.76, -0.56 (mean -0.65; controls 0 of 18).
For KAPQSQLYESRNKNSVA | GASTRES | QQYHRLPLI, the assay gave 1.61, 1.49, 1.39, 1.26, 1.43, 2.36 (mean 1.59; controls 0 of 18).
For KASQSVLFESRNKNSVA | DASFRES | QQYHRLPLS, the assay gave 0.18, 0.19, 0.16, 0.13, 0.05, 0.08 (mean 0.13; controls 0 of 18).
For KSYPSFLYESRNKNSVA | EASTRES | QQYHRLPLS, the assay gave -0.14, -0.16, -0.14, -0.21, -0.25, -0.22 (mean -0.18; controls 1 of 18).
For KYSQSVLYESVNKNSVA | DASTRES | QQYHRLPLS, the assay gave 1.35, 1.17, 0.80, 1.27, 1.67, 1.05 (mean 1.22; controls 1 of 18).
For KSLQSVPYESRNKNSVA | HASTRED | QQYHRLPLS, the assay gave 2.23, 0.94, 0.64, 2.46, 2.62, nd (mean 1.78; controls 0 of 18).
For KLRQSLLYESRNPNSVA | EASTRES | QQYHRLPLS, the assay gave -0.17, -0.35, -0.40, -0.39, -0.32, -0.18 (mean -0.30; controls 1 of 18).
For KQSQSVLYESRNKNSVA | MASTRES | QQYHRLPLM, the assay gave 1.42, 2.27, 1.32, 1.19, nd, 2.28 (mean 1.70; controls 0 of 18).
For KLSQSVLYEDRVKNSVA | SASTRES | QQYHRLPLS, the assay gave 0.22, -0.04, 0.30, 0.12, -0.16, 0.03 (mean 0.08; controls 0 of 18).
For KLSQSWLYESRNKNSVA | GASSRES | QQYHRLPLS, the assay gave -0.03, -0.02, -0.25, -0.25, -0.20, -0.07 (mean -0.14; controls 0 of 18).
For KHSQGVLYESRNKNSVA | GASTRES | QQYHRLPLS, the assay gave 0.12, -0.10, -0.20, -0.21, -0.21, 0.13 (mean -0.08; controls 3 of 18).
For KMSISYLEESRNKNSVA | EASTRES | QQYHRLPLS, the assay gave 0.46, 0.07, 0.11, -0.01, -0.01, 0.16 (mean 0.13; controls 0 of 18).
For KSSGSVLFESRNKNSVA | DASTRSS | QQYHRLPLS, the assay gave 0.56, 0.44, 0.35, 0.46, 0.34, 0.58 (mean 0.46; controls 2 of 18).
For KSSISYAYESRNKNSVA | AASTRES | QQYHRLPLS, the assay gave 0.73, 0.47, 0.88, 0.48, 1.21, 0.55 (mean 0.72; controls 0 of 18).
For KLEQSTLYESRNKNSVA | LASTRES | QQYHRLPLS, the assay gave 1.18, 1.66, 1.51, 0.66, 1.14, 1.37 (mean 1.25; controls 0 of 18).
For KFSQSVLYESRTSNNVA | NASTRES | QQYHRLPLS, the assay gave 0.39, 0.65, 0.24, 0.51, 0.49, 0.55 (mean 0.47; controls 1 of 18).
For HQSPSVLYESRNKNSVA | NASTRES | QQYHRLPLQ, the assay gave 0.15, -0.01, -0.02, -0.15, -0.21, 0.05 (mean -0.03; controls 1 of 18).
For KMSQSVLMEHRNKNSVA | DASTRES | QQYHRLPLS, the assay gave 0.02, -0.27, -0.33, -0.34, -0.27, -0.01 (mean -0.20; controls 0 of 18).
For KVSQSWLMESRNKNSVA | EASTRYS | QQYHRLPLS, the assay gave 0.27, -0.01, -0.14, -0.29, 0.17, 0.09 (mean 0.02; controls 0 of 18).
For KFSQSVLYESTTWNSVA | NASTRES | QQYHRLPLS, the assay gave 0.26, 0.44, 0.14, -0.01, 0.23, 0.55 (mean 0.27; controls 0 of 18).
For KQSQSGLCESRNKNSVA | DASTRES | QQYHRLPLS, the assay gave 0.11, 0.08, 0.13, 0.05, 0.49, 0.19 (mean 0.18; controls 0 of 18).
For KLEQSQNYESRNQNSVA | NASTRES | QQYHRLPLS, the assay gave 0.26, 0.20, 0.10, -0.19, 0.03, 0.25 (mean 0.11; controls 2 of 18).
For KFSQSVLYESRTKNSVA | EAVTRET | QQYHRLPLS, the assay gave 0.23, 0.36, -0.20, -0.07, 0.11, 0.05 (mean 0.08; controls 0 of 18).
For KSSWSVLPESRNKNSVA | DASTRSS | QQYHRLPLS, the assay gave 0.28, 0.08, 0.09, -0.09, -0.02, 0.00 (mean 0.06; controls 2 of 18).
For KQSQSVSYEWRNKNSVA | DASTRES | QQYHRLPLS, the assay gave 0.45, 0.65, 0.38, 0.25, 0.40, 0.73 (mean 0.48; controls 3 of 18).
For KFSQVVLYESRTKNSVA | NASTRES | QQYHRLPLS, the assay gave -0.25, -0.32, -0.10, -0.64, -0.22, -0.08 (mean -0.27; controls 0 of 18).
For KSSWSSLYESRNKNSVA | DASTRES | QQYHRLPLS, the assay gave 0.07, -0.38, -0.41, -0.49, -0.63, -0.24 (mean -0.35; controls 0 of 18).
For KSSQGVLYESRNKNHVA | GASTRES | QQYHRLPLS, the assay gave 0.89, 1.03, 0.57, 1.12, 1.94, 1.75 (mean 1.22; controls 0 of 18).
For KDLQSVLYESRNKNSVA | HASTRED | QQYHQLPLS, the assay gave 0.18, 0.17, 0.02, 0.24, 0.16, 0.46 (mean 0.20; controls 1 of 18).
For KLRFSTLYESRNKNSVA | EASTRES | QQYHRLPLS, the assay gave -0.35, -0.39, -0.24, -0.60, -0.64, -0.36 (mean -0.43; controls 0 of 18).
For KLVQSVLYESRNKNSVA | HASTRED | QQYHRLPLS, the assay gave 0.50, 0.65, 0.38, 0.02, 0.34, 0.71 (mean 0.43; controls 2 of 18).
For KESQSVLLEWRNKNSVA | DASTRES | QQYHRLPLS, the assay gave 0.30, -0.30, -0.16, -0.33, -0.03, 0.08 (mean -0.08; controls 0 of 18).
For KQSQSVLYESRNVNSVA | DASTRSS | QQYHRLPLS, the assay gave 0.17, -0.07, 0.01, 0.06, -0.44, 0.12 (mean -0.03; controls 1 of 18).